Laboratory results from patent publication US20110009387A1, “HISTONE H2AX (HH2AX) BIOMARKER FOR FTI SENSITIVITY” (priority 2007, published 2011).

Target: farnesyl transferase (Homo sapiens, UniProt P49356)
Assay: Inhibition of farnesyl transferase
Assay type: biochemical

NC(=O)N1CCC(CC(=O)N2CCC(C3c4ncc(Br)cc4CCc4cc(Cl)cc(Br)c43)CC2)CC1 (single isomer, unassigned) [inactive enantiomer of lonafarnib]
inhibition of farnesyl transferase: fails to inhibit
